Experimental data from patent US20090042783A1, “APO E ANALOGS AND METHODS FOR THEIR USE” (priority 2004, published 2009).

Amino acid sequences for entries named in this document (tags omitted). A change or cut given only in a name is not applied to a line headed by its entry.
UniProt P02649: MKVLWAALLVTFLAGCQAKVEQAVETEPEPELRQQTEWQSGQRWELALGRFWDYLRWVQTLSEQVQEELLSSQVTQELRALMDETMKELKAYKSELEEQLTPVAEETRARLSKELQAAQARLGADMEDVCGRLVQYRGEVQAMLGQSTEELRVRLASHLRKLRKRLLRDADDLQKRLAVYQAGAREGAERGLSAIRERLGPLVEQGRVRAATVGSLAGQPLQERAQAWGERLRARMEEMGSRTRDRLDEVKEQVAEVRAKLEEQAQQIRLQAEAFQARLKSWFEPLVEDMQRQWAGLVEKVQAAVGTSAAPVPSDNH

System: BV2 microglial cells
Experimental: For suppression of inflammation profiling, each peptide analog was tested at a final concentration of 0.1, […], 1, 3, 5, 10 and 25 μM in an LPS induced BV2 microglial cell release of NO and/or TNFα. […] The modification was a biotin label on the apoE peptide (biotin-[…]-amide) which allows detection with ^125I-streptavidin (ISA, Amersham).
In overview, BV-2 cells are plated in 96 well plates in complete media and then the media is replaced the next day with serum free media or reduced serum (1%) media. […] Each concentration of peptide (standard initial concentrations are 0.1, 0.5, 1, 3, 10 and 25 μM) is added to at least 6 wells of cells (e.g. 6 wells get 0.1 μM peptide, 6 wells get 0.5 μM peptide, etc.) and data are averaged from all 6 wells. […] (2001). Cell viability is also measured with an MTT assay (Laskowitz et al. 2001).

Substance | Suppression of NO and/or TNFα release from LPS treated BV2 cells | Nitric oxide release from LPS-treated BV2 cells (Laskowitz et al. 2001) | TNFα release from LPS stimulated BV2 cells (Laskowitz et al. 2001)
apoE 130-149: truncated apoE peptide, residues 130-149 (TEELRVRLASHLRKLRKRLL; UniProt P02649 148-167, looked up, fragment) | maintained the activity of the apoE 130-150 parent peptide | significantly reduced nitric oxide release | dose dependent inhibition of TNFα release
all-L amino acid apoE 130-150 peptide: apoE 130-150 parent peptide, all L-amino acids (TEELRVRLASHLRKLRKRLLR; UniProt P02649 148-168, looked up, fragment) | suppress both NO and TNFα release |  | 
